Like-named read-outs stand apart in the source and are kept apart here. This is a selection: effects in other tests are not listed, and their absence says nothing.
Key:
[1] = biological target: T1, NAD(P)H:quinone oxidoreductase (NQO1) (Rattus norvegicus, UniProt P05982); assay: Steady-state kinetics of reduction by NAD(P)H:quinone oxidoreductase (NADPH oxidation); conditions: pH 7.0, 25 °C, NADPH 150 µM
Procedure: The determined initial rates of the reduction of the whole set of BFXs by NQO1 followed the complete hyperbolic dependence upon concentrations of the compounds, varying in the range of 12.5–400 µM (data not shown). […] The steady-state kinetic measurements of the enzymatic reduction of BFXs were carried out spectrophotometrically applying Lambda 25 (PerkinElmer, Waltham, MA, USA) or Carry 60 (Agilent Technologies, Santa Clara, CA, USA) UV-VIS spectrophotometers in 0.1 M K-phosphate buffer solution (pH 7.0) containing 1 mM EDTA, at 25 °C. The initial enzymatic rates were monitored according to NADPH oxidation at 340 nm (∆ε340 = 6.22 mM^−1·cm^−1), using 1.0 or 0.2 cm optical path cells, and corrected for the formation of 340 nm-absorbing products after recording their spectra in NADPH-regeneration system (10 U/mL glucose-6-phosphate dehydrogenase, 10 mM glucose-6-phosphate, and 15–20 μM NADPH). For certain BFXs, the reduction of the compounds was measured following NADPH oxidation at wavelengths of isosbestic points of their absorbance spectra, obtained in the NADPH-regeneration system, i.e., at 305 nm (∆ε305 = 2.45 mM^−1·cm^−1) for 5-Cl-benzofuroxan, 350 nm (∆ε350 = 5.64 mM^−1·cm^−1) for 5-methoxy-benzofuroxan, 370 nm (∆ε370 = 2.60 mM^−1·cm^−1) for 5-ethoxybenzofuroxan, and 340 nm (∆ε340 = 6.22 mM^−1·cm^−1) for benzodifuroxan. The rates were additionally corrected for the intrinsic NADPH-oxidase activity of P-450R (0.11 s^−1) and NQO1 (0.05 s^−1). In separate experiments, the reduction of cytochrome c (50 μM) in the presence of NADPH and BFXs was measured spectrophotometrically according to an increase in absorbance at 550 nm by using ∆ε550 = 20.0 mM^−1·cm^−1. BFX-mediated oxygen uptake was monitored polarographically by Clark electrode (Digital Model 10, Rank Brothers Ltd., Cambridge, UK), at 25 °C. […]

Sequences of proteins named here, by UniProt entry; tags and fusion partners are left off. Residues count along the entry.
UniProt P05982, 2-274 limits assumed: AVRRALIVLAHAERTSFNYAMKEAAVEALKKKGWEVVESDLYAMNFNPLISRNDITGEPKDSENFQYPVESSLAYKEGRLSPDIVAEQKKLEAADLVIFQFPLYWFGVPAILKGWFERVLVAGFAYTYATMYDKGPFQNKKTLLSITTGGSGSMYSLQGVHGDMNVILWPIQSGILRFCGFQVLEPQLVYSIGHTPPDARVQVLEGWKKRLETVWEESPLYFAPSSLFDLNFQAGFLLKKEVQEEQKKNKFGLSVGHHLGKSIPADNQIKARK

[2] = experimental; ref [16],[24]; cited from earlier work
[3] = biological target: T1, NAD(P)H:quinone oxidoreductase (NQO1); assay: Inhibition of NQO1 quinone reductase reaction (menadione-mediated reduction of cytochrome c); conditions: BFXs, 4 µM menadione, 50 µM cytochrome c
From the text: In an attempt to predict other possible factors which may influence the reactivity of BFXs, we examined the inhibition of NQO1 by BFXs in NAD(P)H:quinone reductase reaction of NQO1 by measuring the initial rates of menadione-mediated reduction of cytochome c. This may provide some information about the character of the compounds binding to the active center of the enzyme ([19, 20], and references therein).
The inhibition of NQO1 by BFXs was examined by measuring the initial rates of 2-methyl-1,4-naphthoquinone-mediated reduction of 50 μM cytochrome c at 550 nm (∆ε550 = 19.2 mM^−1·cm^−1), in the presence of 4 μM 2-methyl-1,4-naphthoquinone, 10–100 μM NADPH, and various fixed concentrations of BFXs as inhibitors. […]
where Eo and Er are the oxidized and reduced enzyme forms, respectively, kcat/Km is the apparent second-order rate constant of NADPH oxidation, Ki is the inhibition constant, and β parameter represents the completeness of enzyme inhibition (0 ≤ β ≤ 1). Based upon this scheme, the hyperbolic dependence of kcat/Km, expressed as (kcat/Km)0/(kcat/Km) ratio on inhibitor concentrations is obtained (Equation (9)): […]
In this study, the Ki and εmax values were determined by fitting the experimental data to the standard hyperbolic expression of the inhibition degree (εI) (=1 − (kcat/Km)/(kcat/Km)0) versus [I] […]

[4] = biological target: T1, NAD(P)H:quinone oxidoreductase (NQO1); conditions: read-out: Ki, inhibition constant of NQO1; NACs; ref [20]; cited from earlier work

| SMILES | kcat, catalytic constant of reduction by NQO1 [1] [s⁻¹] | E^1_7, single-electron reduction potential [2] [V] | εmax, maximal degree of inhibition of NQO1 [3] [%] | Ki ([3]; read-out: Ki, inhibition constant of NQO1, competitive with respect to NADPH) [µM] | Ki [4] [µM] |
| --- | --- | --- | --- | --- | --- |
| O=[N+]([O-])c1cccc([N+](=O)[O-])c1 | 0.3 | −0.345 |  |  |  |
| [O-][n+]1onc2c1c1no[n+]([O-])c1c1no[n+]([O-])c21 | 2.6 ± 0.3 |  | 100 | 46 |  |
| Cc1c([N+](=O)[O-])cc([N+](=O)[O-])cc1[N+](=O)[O-] | 1.0 | −0.253 |  |  | 80 |

Reference: paper PMC4284768, “The Study of NADPH-Dependent Flavoenzyme-Catalyzed Reduction of Benzo[1,2-c]1,2,5-oxadiazole N-Oxides (Benzofuroxans)” (2014)
